The results in this text go back to patent publication US5721207A, “Method for treatment of pain” (Innapharma, Inc., priority 1995, dated 1998).

Like-named read-outs stand apart in the source and are kept apart here.

For data set [1], the system named is rat. In words: Rat hot plate analgesiometric test, dose response of single intrathecal elcatonin (Example 8). Type of data set: in vivo. Particulars: 0.8 IU/kg intrathecal. The method, then:
The doses tested were 0.2, 0.8, 1.6, 2.4, and 3.6 IU/kg. The desired dose was injected in a volume of 37.5 μL/kg, followed by a catheter wash-out with 10 μL saline, via the intrathecal route.
A total of 113 adult male rats, of weights of 350 g to 400 g, were used. Intrathecal catheters were surgically implanted as described in Example 4.
Data were analyzed for statistical significance, and a point estimate (mean and standard deviation) are used to analyze analgesic activity for each dose of the drug for a selected time period. Nonparametric statistics were calculated to address the level of significance of any difference between control and test group.

The subject of data set [2] is rat. The experiment in a line: Rat hot plate test, single intravenous elcatonin (Example 10). Conditions: 10-300 IU/kg. Type of data set: in vivo. The method, then: A total of 24 rats, ranging in weight from 320 to 420 g, was used in this study. Four to eight rats were used for each dose level. Elcatonin was administered in a volume of 0.5 ml/mg body weight by tail vein injection. The doses used were 10, 30, 100 and 300 IU/kg (1.61, 4.83, 16.1 and 48.3 μg/kg, respectively).

The subject of data set [3] is rat. In words: Rat hot plate test, five consecutive daily intrathecal doses of elcatonin (Example 11). Type of data set: in vivo. Conditions: 4.4 IU/kg intrathecal. Here is the method: This study assesses the effectiveness of repeated doses of intrathecally administered elcatonin for analgesia. Intrathecal catheters were implanted in rats as described hereinabove, and a 7-10 day period thereafter allowed for full recovery from the surgical procedures.
Eighteen rats were assigned to three treatment groups of six rats per group. The study is conducted in two treatment phases at one week intervals. Treatment Group I rats receive no treatment. Group II rats receive five consecutive daily intrathecal doses of sterile physiological saline (vehicle control). Group III rats receive five consecutive daily doses of elcatonin (4.4 IU/kg body weight).
For each treatment, hot plate latencies are determined as described in Example 5 herein above at 0 minutes (predose, baseline), 1 hour, 3 hours, and 24 hours following injection on the first, third, and fifth study days.
(In hot-plate and tail-flick tests a longer latency is read as antinociception.)

In data set [4] the test system is rat. The experiment in a line: Rat hot plate test, 10 single daily intrathecal doses of elcatonin over 11 days (Example 12). The format is in vivo. Particulars: 4.4 IU/kg intrathecal, 10 daily doses. The method, then: This study assesses the effectiveness of repeated doses of 10 single consecutive daily doses of elcatonin administered via the intrathecal route in the rat during two 5 day treatment phases separated by a 48 hour nontreatment interval.
Intrathecal catheters were implanted in rats as described hereinabove, and a 7-10 day period thereafter allowed for full recovery from the surgical procedures. Nine rats were assigned to three treatment groups of three rats per group. The study is conducted in two 5 day treatment phases separated by a 48 hour nontreatment interval. Treatment Group I rats receive no treatment (sham injection). In each treatment phase, Group II rats received five consecutive daily intrathecal doses of sterile physiological saline (vehicle control), for a total of 10 injections per study treatment. In each treatment phase, Group III rats each received five consecutive daily doses of elcatonin (4.4 IU/kg body weight), for a total of 10 injections per study treatment (Table 4).
For each treatment, hot plate latencies are determined as described in Example 5 hereinabove at 0 minutes (predose, baseline), 1 hour, 3 hours, and 24 hours following injection on the 1st, 3rd, 5th, 7th, 9th and 11th study days (Table 4).

Data set [5] has as its system rat. The experiment in a line: Rat hot plate test, intrathecal elcatonin with 0.1% human serum albumin (Example 13). The format is in vivo. Conditions: 4.4 IU/kg intrathecal, with or without 0.1% HSA. The method, then: On each study day, a standard 25% (wt/vol) solution of HSA is diluted under aseptic conditions with physiological saline ([…] of NaCl, USP grade) to achieve the desired stock solution concentration of 0.2% (wt/vol). Where needed, an aliquot of elcatonin solution was mixed with an equal volume of 0.2% HSA to give a final concentration of 0.1% HSA in the elcatonin-containing composition for administration.
Thirty-two male rats (320-420 g) are obtained, adapted, catheterized and recovered as described hereinabove. Group I rats are injected intrathecally with elcatonin in physiological saline at a dose of 4.4 IU/kg, in a volume of 10 μl/kg. Group II rats are injected intrathecally with a dose of 4.4 IU/kg in physiological saline containing 0.1% HSA, in a volume of 10 μL/kg. Group III rats are injected with physiological saline containing 0.1% HSA, 10 μL/kg. Each dose is followed by a washout of 8 μL of physiological saline.
In each of the study groups, hot plate latencies are determined at 0 minutes (baseline, predose), 1 hour, 3 hours, 6 hours, and 24 hours following intrathecal injections on the 1st, 3rd and 5th study days.

The test system of data set [6] is rat.

Consider “[Des-Cys^1,ASU^7 ]-Calcitonin, Eel [Elcatonin]”, for which the mortality result in the data set on rat [1] is recorded as “A fourth rat died 24 hr after the intrathecal administration”; in the data set with rat [6] (intrathecal), “no mortality was observed”. Moreover, the “body weight changes, morbidity, mortality, clinical and behavioral abnormalities” value is “no significant body weight changes, morbidity, mortality or clinical and behavioral abnormalities were observed” with rat [2]; “no significant body weight changes, morbidity, mortality or clinical and behavioral abnormalities were observed” in the data set on rat [3]; “no significant body weight changes, morbidity, mortality or clinical and behavioral abnormalities were observed” with rat [4]; “no significant body weight changes, morbidity, mortality or clinical and behavioral abnormalities were observed” in the data set with rat [5]. In the data set with rat [6] (3.6 and 5.2 IU/kg intrathecal), the myoclonia result is “Short-Term tail (2) and hind limb (1) myoclonia occurred in two animals”. For the same substance, the “clinical or behavioral abnormalities” value in the data set with rat [6] (24 hour observation period following intrathecal administration) was “No clinical or behavioral abnormalities were noted”. Besides, the body weight changes entry with rat [6] (intrathecal) was “unremarkable”.
